One assay concerns the target GLUT1 (Homo sapiens, UniProt P11166). Description: D-[[…]-3H] glucose uptake in GLUT1-overexpressing CHO cells (CHO-G1).
The target in the next assay is GLUT3 (Homo sapiens, UniProt P11169). Description: counterflow transport assay (protein concentration […]).

Sequences of proteins named here, by UniProt entry; tags and fusion partners are left off.
UniProt P11169, whole entry: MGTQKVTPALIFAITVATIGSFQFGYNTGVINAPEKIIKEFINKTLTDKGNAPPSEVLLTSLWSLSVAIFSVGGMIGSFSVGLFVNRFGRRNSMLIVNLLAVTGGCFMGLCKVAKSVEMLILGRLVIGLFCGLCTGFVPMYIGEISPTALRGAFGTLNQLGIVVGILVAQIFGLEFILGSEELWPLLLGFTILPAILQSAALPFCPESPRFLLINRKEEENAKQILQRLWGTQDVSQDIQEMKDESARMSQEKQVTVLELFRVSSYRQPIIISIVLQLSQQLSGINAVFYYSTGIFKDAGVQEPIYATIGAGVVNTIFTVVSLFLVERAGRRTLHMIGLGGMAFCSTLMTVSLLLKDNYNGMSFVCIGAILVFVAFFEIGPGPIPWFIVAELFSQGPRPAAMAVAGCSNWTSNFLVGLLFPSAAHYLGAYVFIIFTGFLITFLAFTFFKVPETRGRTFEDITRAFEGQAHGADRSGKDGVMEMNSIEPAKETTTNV

SMILES strings stand for the structures.

One may read the IC50 as the concentration that gives 50% inhibition. Read a low IC50 as inhibition by little substance. In turn, `COc1ccc(CCC(=O)O[C@@H](CN2C(=O)c3ccccc3C2=O)CN2C(=O)NC(C)(c3ccc4c(c3)OCO4)C2=O)cc1OC` (some centres unmarked) came in with an IC50 against GLUT1 of 1430 nM.
As to `COc1ccc(CC(=O)OC(CN2C(=O)c3ccccc3C2=O)CN2C(=O)NC(C)(c3ccc4c(c3)OCO4)C2=O)cc1OC` (single isomer, unassigned), the IC50 against GLUT3 worked out at 1660 nM.

The record behind these values is PMC7251022.
